Values of other authors, collected in patent US20160022811A1 (Teva Pharmaceutical Industries Ltd., priority 2013, published 2016).

Tests used:
[1] = subcutaneous administration, after one hour

## L-glutamic acid polymer with L-alanine, L-lysine, L-tyrosine, acetate (salt) [glatiramer acetate]
patients; 10- and 15-year follow-up visits
  association with immunosuppression, malignancy or other autoimmune diseases: not associated
patients; human, in vivo
  duration of immediate post-injection systemic reaction symptoms: up to 30 minutes
  patients with immediate post-injection systemic reactions at least once: 15-38%
[1]
  remaining at the injection site: 10%
